Data from patent publication US8815918B2, “Imidazo [2, 1-B] [1, 3, 4] thiadiazole derivatives” (Centro Nacional de Investigaciones Oncologicas (CNIO), priority 2009, dated 2014).

Amino acid sequences for entries named in this document (tags omitted).
UniProt P42336, whole entry: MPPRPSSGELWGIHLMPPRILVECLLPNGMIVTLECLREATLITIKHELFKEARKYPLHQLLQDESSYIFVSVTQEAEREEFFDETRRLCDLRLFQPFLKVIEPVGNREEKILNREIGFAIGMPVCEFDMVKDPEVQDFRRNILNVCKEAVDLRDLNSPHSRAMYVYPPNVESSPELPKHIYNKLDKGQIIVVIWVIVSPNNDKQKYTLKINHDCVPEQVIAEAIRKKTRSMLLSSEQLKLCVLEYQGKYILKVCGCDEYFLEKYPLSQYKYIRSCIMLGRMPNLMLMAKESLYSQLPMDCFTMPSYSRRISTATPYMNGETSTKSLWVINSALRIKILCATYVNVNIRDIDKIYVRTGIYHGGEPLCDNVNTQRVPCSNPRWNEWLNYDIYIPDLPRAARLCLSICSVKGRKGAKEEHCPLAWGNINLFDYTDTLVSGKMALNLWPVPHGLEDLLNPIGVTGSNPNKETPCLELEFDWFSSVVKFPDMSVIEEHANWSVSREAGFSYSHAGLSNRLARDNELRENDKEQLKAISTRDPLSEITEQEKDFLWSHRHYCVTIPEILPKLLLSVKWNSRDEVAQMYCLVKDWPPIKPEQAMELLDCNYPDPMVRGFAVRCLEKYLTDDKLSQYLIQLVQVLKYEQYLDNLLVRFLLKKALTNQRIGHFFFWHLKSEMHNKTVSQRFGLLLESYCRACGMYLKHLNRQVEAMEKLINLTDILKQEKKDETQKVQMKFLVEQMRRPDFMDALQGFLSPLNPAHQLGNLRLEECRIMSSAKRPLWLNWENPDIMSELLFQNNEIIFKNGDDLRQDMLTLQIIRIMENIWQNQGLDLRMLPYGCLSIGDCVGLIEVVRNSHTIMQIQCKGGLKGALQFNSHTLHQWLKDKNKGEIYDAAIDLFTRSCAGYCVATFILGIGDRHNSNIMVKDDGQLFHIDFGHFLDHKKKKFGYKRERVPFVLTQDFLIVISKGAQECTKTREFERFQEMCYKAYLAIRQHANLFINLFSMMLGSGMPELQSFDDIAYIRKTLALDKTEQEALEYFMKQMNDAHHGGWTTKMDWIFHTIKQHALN
UniProt P27986, whole entry partner: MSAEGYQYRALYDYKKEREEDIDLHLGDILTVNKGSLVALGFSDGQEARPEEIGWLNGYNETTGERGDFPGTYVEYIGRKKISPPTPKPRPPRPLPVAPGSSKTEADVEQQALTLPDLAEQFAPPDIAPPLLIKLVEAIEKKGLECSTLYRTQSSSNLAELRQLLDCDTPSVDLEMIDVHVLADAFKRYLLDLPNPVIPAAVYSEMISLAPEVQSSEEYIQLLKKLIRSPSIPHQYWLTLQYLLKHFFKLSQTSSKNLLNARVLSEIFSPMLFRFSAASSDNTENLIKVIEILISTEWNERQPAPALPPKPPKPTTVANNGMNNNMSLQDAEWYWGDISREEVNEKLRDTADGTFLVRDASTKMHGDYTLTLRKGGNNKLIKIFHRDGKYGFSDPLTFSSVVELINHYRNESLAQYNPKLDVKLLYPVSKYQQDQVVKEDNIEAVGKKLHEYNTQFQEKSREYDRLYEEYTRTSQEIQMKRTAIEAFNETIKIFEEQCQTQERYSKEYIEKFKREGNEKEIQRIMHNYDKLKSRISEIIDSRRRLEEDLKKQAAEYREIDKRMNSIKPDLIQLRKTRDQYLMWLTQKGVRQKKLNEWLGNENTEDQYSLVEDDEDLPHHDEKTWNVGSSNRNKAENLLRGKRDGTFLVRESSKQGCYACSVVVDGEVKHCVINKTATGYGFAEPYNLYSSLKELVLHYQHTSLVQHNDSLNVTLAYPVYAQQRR

Target: PI3K (p110α/p85α) (Homo sapiens (Human), UniProt P42336)
Assay: PI3K Activity Assay (ADP Hunter Plus)
Details: read-out: Biological activity in PI3Kα, semi-quantitative
Method: The kinase activity was measured by using the commercial ADP Hunter™ Plus assay available from DiscoveRx (#33-016), which is a homogeneous assay to measure the accumulation of ADP, a universal product of kinase activity. The enzyme, PI3K (p110α/p85α was purchased from Carna Biosciences (#07CBS-0402A). The assay was done following the manufacturer recommendations with slight modifications: Mainly the kinase buffer was replace by 50 mM HEPES, pH 7.5, 3 mM MgCl2, 100 mM NaCl, 1 mM EGTA, 0.04% CHAPS, 2 mM TCEP and 0.01 mg/ml BGG. The PI3K was assayed in a titration experiment to determine the optimal protein concentration for the inhibition assay. To calculate the IC50 of the ETP-compounds, serial 1:5 dilutions of the compounds were added to the enzyme at a fixed concentration (2.5 μg/mL. The enzyme was preincubated with the inhibitor and 30 μM PIP2 substrate (P9763, Sigma) for 5 min and then ATP was added to a final 50 μM concentration. Reaction was carried out for 1 hour at 25° C. Reagent A and B were sequentially added to the wells and plates were incubated for 30 min at 37° C. Fluorescence counts were read in a Victor instrument (Perkin Elmer) with the recommended settings (544 and 580 nm as excitation and emission wavelengths, respectively). Values were normalized against the control activity included for each enzyme (i.e., 100% PI3 kinase activity, without compound). […]

## COc1ncc(-c2nn3c(-c4ccnnc4)cnc3s2)cc1NS(=O)(=O)c1ccc(F)cc1F
  IC50: < 100 nM
